Each structure is given as a SMILES string. Values joined by “and” are separate entries in the source; they are usually repeats but may differ in a detail not shown here. Equal entries are not always repeated. Only a part is listed here, and it is no random draw. Active and inactive are the calls of the source. Cut-off read from the data, not from the text of the source: active = activation above about 40%; inactive = the rest, inconclusive results apart.

This is an account of results in PubChem BioAssay AID1259423 (Fisher Drug Discovery Resource Center, 2018).

The test system of this experiment is Aedes aegypti neuropeptide Y-like receptor 7 (NPYLR7). As to the kind of experiment: agonists of mosquito NPYLR7 receptor, primary screen, cell-based, Aedes aegypti, calcium fluorescence, mosquito biting behavior (AID 1259423).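 Note: 0% = vehicle and 100% = reference agonist at the receptor.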 The following applies: HEK293T NPYLR7/Galpha15, GCaMP6s calcium fluorescence; at 10 µM; stronger effect = higher value.
For `COP1(=S)c2c(C)nn(-c3ccccc3)c2N=C(c2ccc(F)cc2)N1C` (stereo not drawn), the activation was inactive: -2.87%.
On to `COc1cc(Br)c([N+](=O)[O-])nc1[N+](=O)[O-]`, for which the activation was inactive: -3.8%.
The same measure for `CC(C)(C)NC1=NCC(CI)S1` (stereo not drawn): inactive: -2.8%.
For the compound `O=C(O[C@H]1CN2CCC1CC2)C1NCc2ccccc2[C@@H]1c1ccccc1` (stereo partly drawn), the activation is inactive: -3.33%.
Under `O=P(C=C(Cl)c1ccccc1)(C=C(Cl)c1ccccc1)Nc1nncs1` stands inactive: -0.372%; under `CCOP(OCC)N1CCOCC1`, inactive: -12.8%.
For the compound `CCN(CC)C1=NP(=O)(c2ccccc2)NC(c2ccccc2)=C1C#N` (stereo not drawn), the activation was inactive: 0.73%.
On to `O=C(NC(Sc1ccncn1)C(Cl)(Cl)Cl)c1ccccc1` (stereo not drawn), for which the activation was inactive: -12%.
In the case of `Cc1c2non([O-])c-2c(C)[n+](=O)[n+]1[O-]`, the activation was inactive: 0.392%.
The same measure for `O=P(O)(O)F`: inactive: -6.88% and inactive: -5.33%.
Under `CCOP1(=S)c2c(C)nn(-c3ccccc3)c2N=C(c2ccccc2F)N1C` (stereo not drawn) stands inactive: -1.94%; under `O=P(Nc1nccs1)(c1ccc(Br)cc1)c1ccc(Br)cc1`, inactive: -1.25%; under `COP(=O)(NS(=O)(=O)c1ccc(Cl)cc1)OC`, inactive: 1.73%.
For `O=C(OC1CN2CCC1CC2)C1COc2ccccc2O1` (stereo not drawn), the activation is inactive: -0.808%.
For `CCCCOP1(=S)N=C2c3ccccc3CN2c2cc(N(C)C)ccc21` (stereo not drawn), the activation was inactive: -2.52%.
Take `Cc1ccc(NC(=O)COC(=O)C(C)(O)c2cccc(F)c2)c(C)c1` (stereo not drawn): the activation was inactive: 5.43%.
The same measure for `CCCCOP(=O)(OCCCC)N(CC)CC`: inactive: -10.7%.
Consider `CCOP1(=S)c2c(C)nn(-c3ccccc3)c2N=C(c2ccccc2)N1C1CC1` (stereo not drawn), for which the activation is inactive: -6.17%.
With `O=P(Nc1ccccn1)(c1ccc(Br)cc1)c1ccc(Br)cc1`, the activation was inactive: 6.79%.
As for `CCOC(=O)NC(Sc1nc2ccccc2o1)C(Cl)(Cl)Cl` (stereo not drawn), the activation was inactive: 3.66%.
For the compound `O=P(Nc1nccs1)(c1ccccc1)c1ccccc1`, the activation is inactive: 7.23%.
In the case of `O=P1(Nc2nc(-c3ccc(F)cc3)cs2)C=C(c2ccccc2)OC(c2ccccc2)=C1`, the activation was inactive: 2.34%.
Take `CCC(C)C(=O)N1CCCC(C(=O)OC2CN3CCC2CC3)C1` (stereo not drawn): the activation is inactive: 3.26%.
For `O=P1(Nc2nncs2)C=C(c2ccccc2)SC(c2ccccc2)=C1`, the activation is inactive: 0.509%.
`Cc1c([N+](=O)[O-])c([N+](=O)[O-])nn1CC(=O)Nc1ccc([N+](=O)[O-])cc1Cl`: the activation was inactive: -4.14%.
The same measure for `CN(C)c1ccc2c(c1)N1Cc3ccccc3C1=NP2(=O)c1ccccc1` (stereo not drawn): inactive: -4.15%; for `O=C(NC1CCS(=O)(=O)C1)NP(=S)(Oc1ccccc1)Oc1ccccc1` (stereo not drawn): inactive: -2.67%; for `O=C(c1cccc([N+](=O)[O-])c1)c1ccc([N+](=O)[O-])c([N+](=O)[O-])c1`: inactive: -1.4%.
For `CC[N+](CC)=C1SC2CS(=O)(=O)C(Br)C2(C)S1` (stereo not drawn), the activation was inactive: -7.62%.
As for `O=C(OC1CN2CCC1CC2)c1ccccc1` (stereo not drawn), the activation was inactive: -20.5%.
As for `CC1CCC(C(C)C)C(OP(=O)(Nc2nccs2)c2ccccc2)C1` (stereo not drawn), the activation was inactive: -2.66%.
Consider `CCOP1(=S)c2c(C)nn(CCC#N)c2N=C(c2ccccc2F)N1C` (stereo not drawn), for which the activation is inactive: -6.55%.
Under `O=P(Nc1nccs1)(c1ccccc1)c1nc2ccccc2s1` (stereo not drawn) stands inactive: -2.35%.
For `COc1cccc(OP(=NC(=S)N2CCOCC2)(C(C)(C)C)C(C)(C)C)c1`, the activation was inactive: 6.16%.
The same measure for `CC(C)N(C(=O)C12CC3CC(C1)CC(P(=O)(Cl)Cl)(C3)C2)C(C)C`: inactive: 2.03%; for `CN1c2ccccc2N2CC(C)(CI)SC12` (stereo not drawn): inactive: 1.29%.
Turning to `NC(=O)Nc1ccc([As](=O)(O)O)cc1`, the activation was inactive: -6.37%.
As to `Cc1ccnc(NP2(=O)C=C(c3ccccc3)OC(c3ccccc3)=C2)c1`, the activation is inactive: -5.4%.
As for `CN(C(=O)Cc1ccccc1)[C@@H]1CC[C@]2(CCCO2)C[C@H]1N1CCCC1`, the activation was inactive: -0.531%.
On to `CCOP1(=S)c2c(C)nn(-c3ccccc3)c2N=C(c2ccc(F)cc2)N1C` (stereo not drawn), for which the activation was inactive: -2%.
`CN(C(=O)Cc1ccc(Cl)c(Cl)c1)[C@@H]1CC[C@]2(CCCO2)C[C@H]1N1CCCC1`: the activation is inactive: 2.75%.
The same measure for `COc1cc(-n2cnnn2)ccc1-n1cnnn1`: inactive: 5.17%; for `CN(CCCl)Cc1cc2cc(I)ccc2s1`: inactive: -5.3%.
For `CN1C(=O)C2C(N=C(N3CCOCC3)N2CCc2ccccc2)N(C)C1=O` (stereo not drawn), the activation is inactive: -2.98%.
With `Cc1ccc(NP(=O)(OCC(F)(F)F)OCC(F)(F)F)nc1`, the activation is inactive: 8.06%.
On to `CCOP(=O)(NC(=NC(C)c1ccccc1)NC(C)c1ccccc1)OCC` (stereo not drawn), for which the activation is inactive: 1.74%.
Take `CN(CCCl)Cc1cc(Cl)c(NC2=NCCN2)c(Cl)c1`: the activation was inactive: 7.36%.
As to `CC1CCC(C(C)C)C(OP(=O)(Nc2ccccn2)c2ccccc2)C1` (stereo not drawn), the activation is inactive: 2.68% and inactive: 2.4%.
On to `Cc1n[n+]2c([nH]c1=O)SCC(Br)C2c1ccccc1` (stereo not drawn), for which the activation was inactive: -3.79%.
The same measure for `BrC1CSc2nc3ccccc3n2C1c1ccccc1` (stereo not drawn): inactive: 16.9%.
Under `O=C1c2no[n+]([O-])c2C(=O)c2no[n+]([O-])c21` stands inactive: -8.92%; under `O=[N+]([O-])c1ccc(-c2csc(NP3(=O)C=C(c4ccccc4)OC(c4ccccc4)=C3)n2)cc1`, inactive: -5.51%.
Under `CCSP(=O)(c1ccccc1)c1ccccc1` stands inactive: 6.76%.
For the compound `CN1CC(=O)NC1=NP(=O)(OCc1ccccc1)OCc1ccccc1`, the activation is inactive: -0.354%.
Regarding `N#Cc1ccc(-c2csc(NP3(=O)C=C(c4ccccc4)OC(c4ccccc4)=C3)n2)cc1`, the activation was inactive: 7.53%.
Turning to `O=C(CBr)c1ccc([N+](=O)[O-])cc1`, the activation is inactive: 2.88%.
Regarding `COP1(=S)c2c(C)nn(-c3ccccc3)c2N=C(c2ccccc2)N1C1CC1` (stereo not drawn), the activation is inactive: -5.4%.
The same measure for `O=C1OC2C3CC(CC13)C2SC(CCl)C(F)(F)F` (stereo not drawn): inactive: -0.513%; for `COc1ccc2nc(NP(=O)(c3ccccc3)c3ccccc3)sc2c1`: inactive: 2.02%; for `CN(C)C1=C(c2c([N+](=O)[O-])cc([N+](=O)[O-])cc2[N+](=O)[O-])CCCC1`: inactive: -13.3%.
`CCCOP(=O)(OCCC)O/C(C)=C/SC#N`: the activation was inactive: 1.76%.
On to `O=P(N=c1nc(-c2ccccc2)n(-c2ccccc2)s1)(N1CCOCC1)N1CCOCC1`, for which the activation was inactive: 0.798%.
Turning to `N#CCOC(=O)C(O)(c1ccccc1)c1ccccc1`, the activation is inactive: -2.72%.
Take `O=P1(Nc2nc(-c3ccccc3)cs2)C=C(c2ccccc2)OC(c2ccccc2)=C1`: the activation was inactive: 0.509%.
The same measure for `Nc1nonc1OCCOc1nonc1N`: inactive: -2.07%; for `CC(C)NC(=O)NP(=O)(Oc1ccccc1)Oc1ccccc1`: inactive: 1.76%; for `O=C(OC1CN2CCC1CC2)c1cccc2[nH]cnc12` (stereo not drawn): inactive: 3.32%.
`COP1(=S)N=C2c3ccccc3CN2c2cc(N(C)C)ccc21` (stereo not drawn): the activation is inactive: 2.4%.
